By UniProt entry, the sequences of proteins in these tests, tags left out.
UniProt P28482, whole entry: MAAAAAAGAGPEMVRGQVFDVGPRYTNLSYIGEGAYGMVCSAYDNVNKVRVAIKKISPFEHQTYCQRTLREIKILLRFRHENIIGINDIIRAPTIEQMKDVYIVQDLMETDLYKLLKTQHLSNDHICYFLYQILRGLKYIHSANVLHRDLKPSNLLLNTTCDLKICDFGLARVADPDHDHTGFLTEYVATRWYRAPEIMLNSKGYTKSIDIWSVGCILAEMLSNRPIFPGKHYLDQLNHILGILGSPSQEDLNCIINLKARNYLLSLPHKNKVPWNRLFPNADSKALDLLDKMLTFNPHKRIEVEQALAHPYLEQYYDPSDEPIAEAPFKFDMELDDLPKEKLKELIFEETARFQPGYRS
UniProt P68400, whole entry: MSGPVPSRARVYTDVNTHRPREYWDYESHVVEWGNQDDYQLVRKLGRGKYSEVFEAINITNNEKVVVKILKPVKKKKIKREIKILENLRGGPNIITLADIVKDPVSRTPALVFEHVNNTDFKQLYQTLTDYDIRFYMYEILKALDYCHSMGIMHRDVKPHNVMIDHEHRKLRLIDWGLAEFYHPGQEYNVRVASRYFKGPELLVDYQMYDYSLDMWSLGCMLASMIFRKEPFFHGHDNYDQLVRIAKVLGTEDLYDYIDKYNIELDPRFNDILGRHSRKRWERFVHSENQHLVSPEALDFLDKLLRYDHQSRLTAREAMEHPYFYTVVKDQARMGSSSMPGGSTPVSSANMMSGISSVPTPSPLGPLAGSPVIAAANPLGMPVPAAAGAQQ
UniProt P49841, whole entry: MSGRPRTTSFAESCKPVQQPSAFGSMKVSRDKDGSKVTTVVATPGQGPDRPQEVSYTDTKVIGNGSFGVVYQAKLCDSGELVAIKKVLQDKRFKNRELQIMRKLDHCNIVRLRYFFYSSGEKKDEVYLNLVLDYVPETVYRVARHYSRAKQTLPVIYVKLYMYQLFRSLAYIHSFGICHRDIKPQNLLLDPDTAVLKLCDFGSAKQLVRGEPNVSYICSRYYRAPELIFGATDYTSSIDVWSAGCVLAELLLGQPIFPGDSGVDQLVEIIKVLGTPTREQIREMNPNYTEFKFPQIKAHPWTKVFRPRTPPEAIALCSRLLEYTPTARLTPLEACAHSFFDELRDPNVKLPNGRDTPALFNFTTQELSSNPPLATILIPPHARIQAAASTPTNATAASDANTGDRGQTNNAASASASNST
UniProt P50750, whole entry: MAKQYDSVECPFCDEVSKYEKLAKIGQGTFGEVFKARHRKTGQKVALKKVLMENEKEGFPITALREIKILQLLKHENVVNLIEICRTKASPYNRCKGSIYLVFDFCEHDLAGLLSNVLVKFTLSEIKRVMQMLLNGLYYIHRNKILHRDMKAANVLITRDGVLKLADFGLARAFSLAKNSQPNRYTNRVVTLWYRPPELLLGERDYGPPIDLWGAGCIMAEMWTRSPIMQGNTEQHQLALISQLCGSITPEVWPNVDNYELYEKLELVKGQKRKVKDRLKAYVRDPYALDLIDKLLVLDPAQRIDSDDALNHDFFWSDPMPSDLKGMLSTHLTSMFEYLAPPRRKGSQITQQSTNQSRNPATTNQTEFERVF
UniProt Q16539, whole entry: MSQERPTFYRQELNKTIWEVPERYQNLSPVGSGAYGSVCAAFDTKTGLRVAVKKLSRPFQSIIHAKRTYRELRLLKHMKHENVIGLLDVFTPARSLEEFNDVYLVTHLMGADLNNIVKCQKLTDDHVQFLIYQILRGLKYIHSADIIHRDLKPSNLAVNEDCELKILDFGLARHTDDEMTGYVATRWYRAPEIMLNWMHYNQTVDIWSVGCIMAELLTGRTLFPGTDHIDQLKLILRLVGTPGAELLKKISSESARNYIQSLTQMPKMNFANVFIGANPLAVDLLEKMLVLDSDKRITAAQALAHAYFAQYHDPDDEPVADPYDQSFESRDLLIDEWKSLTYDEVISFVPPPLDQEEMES
UniProt P31749, whole entry, looked up: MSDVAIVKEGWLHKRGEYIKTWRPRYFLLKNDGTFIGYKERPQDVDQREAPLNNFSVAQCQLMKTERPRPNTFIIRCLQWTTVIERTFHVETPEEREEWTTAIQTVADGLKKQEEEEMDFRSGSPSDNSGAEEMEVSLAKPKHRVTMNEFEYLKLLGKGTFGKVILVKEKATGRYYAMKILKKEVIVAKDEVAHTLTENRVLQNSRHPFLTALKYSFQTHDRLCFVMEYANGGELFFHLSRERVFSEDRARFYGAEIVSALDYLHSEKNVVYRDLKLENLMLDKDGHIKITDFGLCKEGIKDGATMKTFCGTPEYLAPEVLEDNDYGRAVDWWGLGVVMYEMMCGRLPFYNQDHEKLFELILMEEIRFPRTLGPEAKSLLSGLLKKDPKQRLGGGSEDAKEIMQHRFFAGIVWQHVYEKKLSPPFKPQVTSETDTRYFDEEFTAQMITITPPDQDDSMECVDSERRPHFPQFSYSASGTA
UniProt O60563, whole entry partner: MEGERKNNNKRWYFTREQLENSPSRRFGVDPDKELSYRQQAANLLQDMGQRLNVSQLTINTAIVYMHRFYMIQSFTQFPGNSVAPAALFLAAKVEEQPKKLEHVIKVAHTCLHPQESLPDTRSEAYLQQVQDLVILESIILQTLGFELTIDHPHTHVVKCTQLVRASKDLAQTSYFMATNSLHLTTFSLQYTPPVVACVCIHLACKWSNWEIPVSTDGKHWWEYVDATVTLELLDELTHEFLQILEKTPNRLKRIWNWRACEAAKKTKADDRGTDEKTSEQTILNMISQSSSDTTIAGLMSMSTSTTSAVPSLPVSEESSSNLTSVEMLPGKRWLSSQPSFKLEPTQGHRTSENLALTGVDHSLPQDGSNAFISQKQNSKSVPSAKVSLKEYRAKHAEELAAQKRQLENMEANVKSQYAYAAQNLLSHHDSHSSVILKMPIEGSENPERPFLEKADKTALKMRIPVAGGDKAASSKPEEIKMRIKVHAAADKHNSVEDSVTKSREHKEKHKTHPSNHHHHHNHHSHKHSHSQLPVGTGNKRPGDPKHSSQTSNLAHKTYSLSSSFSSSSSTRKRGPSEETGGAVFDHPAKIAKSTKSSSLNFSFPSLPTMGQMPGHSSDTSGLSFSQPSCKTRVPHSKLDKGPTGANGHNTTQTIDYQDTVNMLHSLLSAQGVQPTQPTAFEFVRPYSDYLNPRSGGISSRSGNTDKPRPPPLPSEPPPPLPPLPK

According to article PMC5785997, “2-Phenylquinazolinones as dual-activity tankyrase-kinase inhibitors” (Scientific Reports, 2018):

Columns and labels:
Conditions in all cases: 10 µM compound, Table 1
[1] = biological target: ERK2 (Homo sapiens, UniProt P28482); assay: Kinase functional assay (mobility shift), ERK2 (p42); format: biochemical
[2] = biological target: human CK2α-1 (Homo sapiens, UniProt P68400); assay: ADP-Glo kinase assay, CK2
[3] = biological target: GSK3β (Homo sapiens, UniProt P49841); assay: Kinase functional assay (mobility shift), GSK3β; format: biochemical
[4] = biological target: CDK9 (Homo sapiens, UniProt P50750); assay: Kinase functional assay (mobility shift), CDK9; format: biochemical
[5] = biological target: p38α (Homo sapiens, UniProt Q16539); assay: Kinase functional assay (mobility shift), p38α; format: biochemical
[6] = biological target: Akt (UniProt P31749); assay: Kinase functional assay (mobility shift), Akt; format: biochemical

Compound `CS(=O)(=O)c1ccc(-c2nnc(/C=C/c3nnc(-c4ccc(C#N)cc4)o3)n2-c2ccccc2Cl)nc1` [Compound G007-LK, G007-LK] has a p42 inhibition-% [1] of 3%, a CK2 inhibition-% [2] of 1% and a GSK3β inhibition-% [3] of 3%. For the same compound, the CDK9 inhibition-% [4] was 9%, the p38 inhibition-% [5] was 3% and the Akt inhibition-% [6] was 1%.

For `Oc1nc(-c2ccc(C(F)(F)F)cc2)nc2c1CSCC2` [Compound 1, XAV939], the p42 inhibition-% [1] was 2%, the CK2 inhibition-% [2] was 1% and the GSK3β inhibition-% [3] was 7%. It also gave a p38 inhibition-% [5] of 3% and an Akt inhibition-% [6] of 7%.
